Experimental data reported in ChEMBL document CHEMBL4229498 (Bioorg Med Chem, 2018).

Protein sequences, listed by entry. Tags and fused reporters are not part of them.
UniProt P21554, whole entry: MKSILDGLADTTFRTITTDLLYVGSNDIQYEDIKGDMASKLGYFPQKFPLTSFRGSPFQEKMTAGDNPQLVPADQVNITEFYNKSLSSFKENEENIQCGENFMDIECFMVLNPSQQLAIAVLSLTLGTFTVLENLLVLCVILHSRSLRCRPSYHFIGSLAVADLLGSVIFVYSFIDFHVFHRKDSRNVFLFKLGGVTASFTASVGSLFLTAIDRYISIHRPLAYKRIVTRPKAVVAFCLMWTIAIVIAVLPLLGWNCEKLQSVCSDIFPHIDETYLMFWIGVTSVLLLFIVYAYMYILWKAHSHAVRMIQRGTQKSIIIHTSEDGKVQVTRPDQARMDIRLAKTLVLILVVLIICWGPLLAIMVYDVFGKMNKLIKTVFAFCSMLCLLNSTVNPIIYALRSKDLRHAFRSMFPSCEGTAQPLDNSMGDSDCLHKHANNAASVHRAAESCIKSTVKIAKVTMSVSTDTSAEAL

Molecular target: Cannabinoid receptor 1 (Homo sapiens, UniProt P21554)
Experiment: Displacement of [3H]-CP55940 from human CB1 receptor expressed in CHO cell membranes after 1 hr by liquid scintillation spectrometry

O=C(C1CCSCC1)N1CCN(c2ncnc3c2nc(-c2ccccc2Cl)n3-c2ccc(Cl)cc2)CC1
Ki: 2 nM
